Laboratory results from US20230340491A1, “COMPOSITIONS AND METHODS FOR TREATING METABOLIC AND CARDIOVASCULAR DISEASES” (UNIVERSITY OF ROCHESTER, priority 2020, published 2023).

Amino acid sequences for entries named in this document (tags omitted). A change or cut given only in a name is not applied to a line headed by its entry.
UniProt O94806: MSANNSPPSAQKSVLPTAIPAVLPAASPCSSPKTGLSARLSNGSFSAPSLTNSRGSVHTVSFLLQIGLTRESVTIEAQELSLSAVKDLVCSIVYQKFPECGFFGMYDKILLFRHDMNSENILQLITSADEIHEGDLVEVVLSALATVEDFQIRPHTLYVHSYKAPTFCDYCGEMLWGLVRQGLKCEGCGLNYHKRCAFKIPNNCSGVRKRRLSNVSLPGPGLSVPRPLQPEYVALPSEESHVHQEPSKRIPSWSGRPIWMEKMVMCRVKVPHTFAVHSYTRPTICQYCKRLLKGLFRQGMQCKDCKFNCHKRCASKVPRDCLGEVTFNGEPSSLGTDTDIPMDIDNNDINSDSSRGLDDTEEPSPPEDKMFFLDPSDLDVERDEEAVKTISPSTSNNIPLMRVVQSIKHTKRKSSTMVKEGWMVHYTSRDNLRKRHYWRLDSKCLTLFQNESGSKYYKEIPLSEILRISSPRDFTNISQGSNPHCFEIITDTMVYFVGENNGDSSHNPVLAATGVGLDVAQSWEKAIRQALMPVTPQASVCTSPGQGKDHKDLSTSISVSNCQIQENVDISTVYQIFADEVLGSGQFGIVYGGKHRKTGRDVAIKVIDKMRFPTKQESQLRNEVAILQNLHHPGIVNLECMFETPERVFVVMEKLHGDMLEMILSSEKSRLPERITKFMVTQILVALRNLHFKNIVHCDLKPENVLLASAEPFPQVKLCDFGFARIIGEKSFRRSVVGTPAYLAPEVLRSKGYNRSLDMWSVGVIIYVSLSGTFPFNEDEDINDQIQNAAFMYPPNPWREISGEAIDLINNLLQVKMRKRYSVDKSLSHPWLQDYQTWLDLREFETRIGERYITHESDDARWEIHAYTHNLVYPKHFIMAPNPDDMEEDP

Experiments:
[1] = test system: WD-fed ApoE-/- mice
[2] = target: PKD3 (Homo sapiens, UniProt O94806); settings: read-out: IC50 for PKD3; selectively inhibits PKD3; cited from earlier work
[3] = test system: HFD-fed C57BL/6J mice; experiment: HFD-induced obesity and NAFLD in C57BL/6J mice treated with CRT0066101; assay type: in vivo, mouse
From the text: The mouse fat and liver tissues from the experimental mice were harvested after oral administration one and a half month.

CC[C@@H](N)CNc1ccnc(-c2cc(-c3cnn(C)c3)ccc2O)n1 [CRT0066101]
body weight after treatment, growth curve (FIG. 3A) ([1]; 8 weeks WD, then 100 ug/10 g per day oral on continued WD, vs vehicle): rapidly decreased
NAFLD activity score (NAS) (FIG. 3F) ([1]; H&E, Sirius Red, Oil Red O staining): alleviated
IC50 [2]: 2 nM
body weight growth curve during treatment (FIG. 2A) ([3]; HFD 6 weeks, then 10 mg/kg/day oral gavage on continued HFD, vs vehicle (H2O)): greatly promoted body weight loss
time after stopping administration until body weight reached the level of vehicle-treated mice (FIG. 2B) ([3]; after stopping CRT0066101, HFD-fed mice): around 7 weeks
